Test results reported in patent US7976843B2, “Method for screening peptides for use in immunotherapy” (Institut National de la Santa et de la Recherche Medicale …, priority 2000, dated 2011).
Read-outs that look alike come from different tables or passages of the source.

Key:
[1] = biological target: T1, HLA A2.1 molecule (Homo sapiens, UniProt P04439, D140Y/D185E/D98H/E176V/E277Q/G131W/G231S/I119V/I121R/I166T/I218V/L300P/L318F/N151K/N90K/P208A/P217A/Q86G/Q94H/R138H/R169H/T345S); assay: Stability of the peptide/HLA A2.1 complex (DC50) on T2 cells, flow cytometry; assay type: binding
Experimental: For each incubation time, the cells are then labeled, as indicated above, with the BB7.2 antibody, and analyzed by flow cytometry in order to evaluate the amount of peptide/HLA A2.1 complex present at their surface. […] The DC50 (dissociation complex: DC) is defined as being the time required for the loss of 50% of the HLA A2.1/peptide complexes stabilized at t=0.

[2] = biological target: T1, HLA A2.1 molecule; assay type: binding
[3] = test system: EL-4/HHD/neu tumor cells; assay: Antitumor protection after peptide vaccination, EL-4/HHD/neu graft; conditions: 10 HHD mice, two injections two weeks apart
[4] = test system: RMAS-HHD targets loaded with peptide; assay: Immunogenicity: CTL generation in HHD transgenic mice, 51Cr lysis of peptide-loaded targets; assay type: in vivo; conditions: CTLs induced in HHD mice sensitized with the natural peptide; FIG. 1
[5] = test system: RMAS-HHD cells loaded with peptide; assay: Vax1/pet-neu immunization: CTL lysis of peptide-loaded RMAS-HHD cells; assay type: in vivo, HHD mice; conditions: CTLs of a Vax1/pet-neu immunized mouse; RMAS-HHD targets loaded with the named peptide; FIG. 14
Experimental: One week after the final immunization, their spleen cells are restimulated in vitro with B cells activated with LPS and loaded with each of the twelve peptides.
The cytotoxicity is evaluated using RMAS-HHD cells (target cells) loaded with the peptide corresponding to that with which the B cells were loaded or with a control peptide.
Six mice are immunized with either the Vax1/pet-neu construct or the vector Vax1. Their spleen cells are stimulated in vitro in a repeated manner with the B cells activated with LPS and loaded with each peptide to be tested (effector cells).
The cytotoxicity is tested after the third stimulation in vitro. The RMAS-HHD cells, loaded with the peptide corresponding to that with which the B cells were loaded, or with a control peptide, and the EL-4/HHD/neu cells are used as target cells.

## ALIHHNTHL [HER-2/neu 466]
[1]; […], arrow in neighbouring cell gives direction
  DC50 Y1-DC50 WT: >4 h
[1]; native peptides, time for loss of 50% of HLA A2.1/peptide complexes
  DC50: 2 h

## CLTSTVQLV [HER-2/neu 789, reference compound]
[1]
  DC50: 6 to 8 h
  DC50 Y1-DC50 WT: =0 hours
[2]
  RA: 1.6
  RA WT/RA Y1: 2.1

## KIFGSLAFL [HER-2/neu 369]
[3]
  tumor size at D28: 474±234 mm^2
[4]
  killing of RMAS-HHD cells loaded with natural peptide or its P1Y variant: same efficacy
[5]
  specific lysis above background noise: 30%

## SLYNTVATL [HIV gag 76]
[4]
  killing of RMAS-HHD cells loaded with natural peptide or its P1Y variant: same efficacy
